{"source": "patent EP1344834A2", "about": "“Methods for the toxicity prediction of a compound” (F. HOFFMANN-LA ROCHE AG, priority 2002, dated 2003)", "settings_in_all_cases": "rat liver, control = 1.0", "key": {"CYP2B2 [1]": {"system": "CYP2B2", "assay": "Affymetrix GeneChip RG-U34A expression analysis of liver after in vivo dosing; note: unit not given here"}, "CYP2B2 [2]": {"system": "CYP2B2", "assay": "Quantitative RT-PCR (SybrGreen) of liver mRNA after in vivo dosing; for AH-R RT-PCR: test concentration or dose not given here; for CYP2B2 RT-PCR: test concentration or dose not given here"}, "AH-R [3]": {"system": "AH-R", "assay": "Affymetrix GeneChip RG-U34A expression analysis of liver after in vivo dosing"}, "PC3 (BTG2) [4]": {"system": "PC3 (BTG2)", "assay": "Quantitative RT-PCR (SybrGreen) of liver mRNA after in vivo dosing"}, "AH-R [5]": {"system": "AH-R", "assay": "Quantitative RT-PCR (SybrGreen) of liver mRNA after in vivo dosing"}, "PC3 (BTG2) [6]": {"system": "PC3 (BTG2)", "assay": "Affymetrix GeneChip RG-U34A expression analysis of liver after in vivo dosing"}}}
{"substance": "(4-Amino-N-(6-bromo-1 H -indol-4-yl)-benzenesulfonamide [Ro65-7199]", "values": [{"measurement": "CYP2B2 Affymetrix", "setting": "CYP2B2 [1]; 6 H", "value": 3.2}, {"measurement": "CYP2B2 Affymetrix", "setting": "CYP2B2 [1]; 7 D", "value": 4.1}, {"measurement": "CYP2B2 Affymetrix", "setting": "CYP2B2 [1]; 24 H", "value": 3.4}, {"measurement": "CYP2B2 RT-PCR", "setting": "CYP2B2 [2]; 6 H", "value": 31.2}, {"measurement": "CYP2B2 RT-PCR", "setting": "CYP2B2 [2]; 7 D", "value": 3.9}, {"measurement": "CYP2B2 RT-PCR", "setting": "CYP2B2 [2]; 24 H", "value": 15.9}, {"measurement": "AH-R Affymetrix", "setting": "AH-R [3]; 6 H", "value": 8.0}, {"measurement": "AH-R Affymetrix", "setting": "AH-R [3]; 7 D", "value": 2.8}, {"measurement": "AH-R Affymetrix", "setting": "AH-R [3]; 24 H", "value": 4.5}, {"measurement": "PC3 (BTG2) RT-PCR", "setting": "PC3 (BTG2) [4]; 6 H", "value": 0.6}, {"measurement": "PC3 (BTG2) RT-PCR", "setting": "PC3 (BTG2) [4]; 7 D", "value": 0.0}, {"measurement": "PC3 (BTG2) RT-PCR", "setting": "PC3 (BTG2) [4]; 24 H", "value": 2.7}, {"measurement": "AH-R RT-PCR", "setting": "AH-R [5]; 6 H", "value": 2.7}, {"measurement": "AH-R RT-PCR", "setting": "AH-R [5]; 7 D", "value": 2.0}, {"measurement": "AH-R RT-PCR", "setting": "AH-R [5]; 24 H", "value": 1.1}, {"measurement": "PC3 (BTG2) Affymetrix", "setting": "PC3 (BTG2) [6]; 6 H", "value": 0.1}, {"measurement": "PC3 (BTG2) Affymetrix", "setting": "PC3 (BTG2) [6]; 7 D", "value": 0.7}, {"measurement": "PC3 (BTG2) Affymetrix", "setting": "PC3 (BTG2) [6]; 24 H", "value": 5.7}]}
